{
  "source": "patent US20070004791A1",
  "about": "“3,6-disubstituted azabicyclo {3.1.0} hexane derivatives useful as muscarnic receptor antagonists” (priority 2002, published 2007)",
  "tested_on": "isolated rat bladder",
  "conditions": "tested form: L-(+)-tartrate",
  "data": [
    {"molecule": "O=C(NC[C@@H]1[C@H]2CN(Cc3ccccc3)C[C@@H]12)[C@@](O)(c1ccccc1)C1CCCC1", "note": "[Compound No. 32, (2S)-(−)(1α,5α,6α)-N-[3-benzyl-3-azabicyclo[3.1.0]hexyl-6-(aminomethyl)-yl]-2-hydroxy-2-cyclopentyl-2-phenyl acetamide]", "values": [
      {"measurement": "Kb", "value": 15.8, "unit": "nM"}
    ]}
  ]
}
